The results in this text go back to PubChem BioAssay AID1779 (Sanford-Burnham Center for Chemical Genomics, 2009).

Sequences of proteins named here, by UniProt entry; tags and fusion partners are left off.
UniProt Q9Y2R2, whole entry: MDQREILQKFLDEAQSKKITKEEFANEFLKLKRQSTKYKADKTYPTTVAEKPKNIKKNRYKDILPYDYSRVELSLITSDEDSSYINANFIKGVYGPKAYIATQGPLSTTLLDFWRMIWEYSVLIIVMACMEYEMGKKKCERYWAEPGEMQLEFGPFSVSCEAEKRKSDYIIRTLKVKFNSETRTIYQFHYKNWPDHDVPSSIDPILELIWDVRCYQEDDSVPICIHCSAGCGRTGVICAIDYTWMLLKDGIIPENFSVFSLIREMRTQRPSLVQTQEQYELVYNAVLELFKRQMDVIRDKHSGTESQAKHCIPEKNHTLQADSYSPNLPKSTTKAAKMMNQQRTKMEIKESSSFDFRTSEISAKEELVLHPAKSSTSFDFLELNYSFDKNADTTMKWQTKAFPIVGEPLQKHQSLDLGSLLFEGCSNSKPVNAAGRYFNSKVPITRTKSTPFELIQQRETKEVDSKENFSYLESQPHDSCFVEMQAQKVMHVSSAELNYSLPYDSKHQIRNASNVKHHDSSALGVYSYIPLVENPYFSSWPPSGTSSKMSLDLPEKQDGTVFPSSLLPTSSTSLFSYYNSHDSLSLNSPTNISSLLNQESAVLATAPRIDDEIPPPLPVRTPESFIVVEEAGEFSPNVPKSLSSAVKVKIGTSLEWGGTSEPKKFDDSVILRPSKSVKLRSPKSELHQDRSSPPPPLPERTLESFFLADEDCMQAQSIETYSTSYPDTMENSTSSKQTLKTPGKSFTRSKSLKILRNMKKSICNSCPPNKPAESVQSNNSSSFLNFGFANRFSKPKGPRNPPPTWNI

Each structure is given as a SMILES string. Only a part is listed here, and it is no random draw. Active and inactive are the calls of the source. Cut-off read from the data, not from the text of the source: active = inhibition above about 50%; inactive = the rest.

The target of this assay is Tyrosine-protein phosphatase non-receptor type 22 (Homo sapiens) (UniProt Q9Y2R2). Kind of assay: PTPN22 lymphoid phosphatase activity blockers – biochemical, fluorescence intensity, uHTS (AID 1779).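 Note: plate controls were vehicle with enzyme for no effect and no enzyme for full effect.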 The following applies: recombinant LYP phosphatase, at 11.5 µM, active compounds read high.
Usually inhibition stands for the drop in the measured response relative to a control, in per cent. As for `CN(C)C1(CNC(=O)c2cccc(C#N)c2)CCCCC1`, the inhibition was inactive: -6.5%.
For `c1ccc(CN2CCC(Nc3ccccc3)CC2)cc1` the value was inactive: -7.8%; for `CCCN1CCC(Nc2cc(OC)cc(OC)c2)CC1`, inactive: -5%; for `N#Cc1ccc(C(=O)NCC2(N3CCCCC3)CCCCC2)cc1`, inactive: -35.3%.
Turning to `CC(C)(C)OC(=O)N1CCC(N(C(=O)c2ccccc2)c2ccc(Cl)cc2)CC1`, the inhibition is inactive: -6.2%.
In the case of `CCOC(=O)N1CCC(Nc2ccc(C)cc2)CC1` it was inactive: -7.9%.
As to `N/C(=N\O)c1c(N)no[n+]1[O-]`, the inhibition is inactive: -0.8%.
On to `O=C(OC1CN2CCC1CC2)C1c2ccccc2C=Cc2ccccc21` (centres undefined), for which the inhibition was inactive: -1.7%.
`COc1ccc(C(=O)NCC2(N3CCOCC3)CCCCC2)cc1OC`: the inhibition is inactive: -4.1%.
Take `COc1cccc(C(=O)N(c2cc(C)cc(C)c2)C2CCN(C(=O)OC(C)(C)C)CC2)c1`: the inhibition is inactive: 12%.
On to `COc1cc(OC)cc(C(=O)NCC2(N3CCOCC3)CCCCC2)c1`, for which the inhibition was inactive: -5.5%.
For `CCC(CO)(C(=O)OC1CN2CCC1CC2)c1ccccc1` (centres undefined) the value was inactive: -9.2%; for `CN1CCC(Nc2ccc(Cl)cc2)CC1`, inactive: -10.4%.
As for `CCCOc1ccc(C)cc1CN(CCCl)CCCl`, the inhibition was inactive: -9%.
For `CCOc1ncccc1C(=O)NCC1(N2CCOCC2)CCCCC1`, the inhibition is inactive: -3.3%.
In the case of `CN1CCC(Nc2ccc(F)c(Cl)c2)CC1` it was inactive: -0.8%; in that of `CC(C)(C)OC(=O)N1CCC(Nc2ccccc2)CC1`, inactive: -1.4%.
As to `O=C(O)C1(Nc2ccccc2)CCN(Cc2ccccc2)CC1`, the inhibition was inactive: -10.9%.
With `CCCOc1ccc(C(=O)NCC2(N(C)C)CCCCC2)cc1`, the inhibition is inactive: -4.4%.
Regarding `CCN1CCC(Nc2cccc(F)c2)CC1`, the inhibition is inactive: -6.2%.
In the case of `CN(C)c1ccc(C(=O)NCC2(N3CCCCC3)CCCCC2)cc1` it was inactive: 1.3%.
In the case of `COc1cc(OC)cc(C(=O)NCC2(N3CCCCC3)CCCCC2)c1`, the inhibition is inactive: -4.3%.
Take `Fc1ccccc1NC1CCN(Cc2ccccc2)CC1`: the inhibition is inactive: -6.4%.
For `CCOC(=O)N1CCC(Nc2cccc(C)c2)CC1` the value was inactive: -6.9%; for `COc1cc(C(=O)NCC2(N(C)C)CCCCC2)ccc1OC(F)F`, inactive: -6.4%; for `Cc1ccc(OCC(C)C)c(CN(CCCl)CCCl)c1`, inactive: -10.9%.
`CCOc1ccc(C)cc1CN(CCCl)CCCl`: the inhibition is inactive: -5.7%.
For `O=C(NCC1(N2CCCCC2)CCCCC1)c1ccc(F)cc1`, the inhibition was inactive: -9.9%.
`CCOC(=O)N1CCC(Nc2ccc(F)cc2)CC1`: the inhibition is inactive: -9.7%.
As for `COc1ccc(NC2CCN(CCc3ccccc3)CC2)c(OC)c1`, the inhibition is inactive: -5.6%.
For `Cc1cc(C)cc(N(C(=O)c2ccccc2)C2CCN(C(=O)OC(C)(C)C)CC2)c1` the value was inactive: -5.8%.
Take `O=C(NCC1(N2CCOCC2)CCCCC1)c1cc2ccccc2o1`: the inhibition is inactive: -10.4%.
As for `N#CC1(Nc2ccccc2)CCN(Cc2ccccc2)CC1`, the inhibition is inactive: -2%.
For `O=C(OC1CN2CCC1CC2)C1c2ccccc2Oc2ccccc21` (centres undefined), the inhibition is inactive: -5.3%.
On to `CCOC(=O)N1CCC(Nc2ccc(OC)cc2)CC1`, for which the inhibition was inactive: -4.2%.
Consider `COc1ccc(C(=O)NCC2(N3CCCCC3)CCCCC2)cc1`, for which the inhibition is inactive: -7.8%.
For `COc1ccc(C(=O)NCC2(N3CCCCC3)CCCCC2)c(OC)c1OC` the value was inactive: 1.7%.
Consider `CC(C)(C)OC(=O)N1CCC(N(C(=O)c2ccccc2)c2ccc(F)cc2)CC1`, for which the inhibition is inactive: -1.9%.
As to `O=C(NCC1(N2CCCCC2)CCCCC1)c1ccc(=O)[nH]c1`, the inhibition was inactive: -13.4%.
In the case of `CSc1ccccc1C(=O)NCC1(N2CCCCC2)CCCCC1`, the inhibition was inactive: -11.3%.
With `CCCOc1ccc(C(=O)NCC2(N(C)C)CCCCC2)cc1OC`, the inhibition is inactive: -8.4%.
Consider `CC(C)c1ccc(NC2CCN(C(=O)OC(C)(C)C)CC2)cc1`, for which the inhibition is inactive: 8.1%.
In the case of `COc1ccc(CN(CCCl)CCCl)cc1Cl`, the inhibition was inactive: -8.6%.
In the case of `CN(C)c1cccc(C(=O)NCC2(N3CCCCC3)CCCCC2)c1`, the inhibition was inactive: -16%.
As to `COc1cc(OC)c(C(=O)NCC2(N(C)C)CCCCC2)cc1OC`, the inhibition was inactive: -9.1%.
In the case of `O=C(NCC1(N2CCCCC2)CCCCC1)c1cccc(C(F)(F)F)c1` it was inactive: -12.2%; in that of `O=C(NCC1(N2CCOCC2)CCCCC1)c1cc(=O)[nH]c2ccccc12`, inactive: -5.4%; in that of `COc1cc(C(=O)NCC2(N3CCCCC3)CCCCC2)ccc1OC(F)F`, inactive: -7.5%.
With `COc1ccc(NC2CCN(C(=O)OC(C)(C)C)CC2)cc1`, the inhibition is inactive: 0.4%.
As to `CN1CCN(CCOC(=O)C(O)(c2ccccc2)c2ccccc2)CC1`, the inhibition is inactive: -6.8%.
For `O=C(NCC1(N2CCCCC2)CCCCC1)c1ccc(OC(F)F)cc1` the value was inactive: -5.3%; for `CCN1CCC(Nc2ccc(Cl)cc2)CC1`, inactive: -6.5%.
On to `N#CC1(Nc2ccccc2)CCN(CCc2ccccc2)CC1`, for which the inhibition is inactive: -4.1%.
In the case of `O=C(NCC1(N2CCCCC2)CCCCC1)c1cccc([N+](=O)[O-])c1`, the inhibition was inactive: -4.5%.
